Target: Protease (Human immunodeficiency virus 1, UniProt Q9YQ12)
Assay: Inhibition of wild type HIV1 protease by enzyme inhibition

Q: How did the Ki turn out when `CC(C)CN(C[C@@H](O)[C@H](Cc1ccccc1)NC(=O)O[C@H]1CCOC1)S(=O)(=O)c1ccc(N)cc1` was run?
A: 6.4 nM
